Results published in patent US12465660B2, “Compositions and methods for cancer imaging and radiotherapy” (VECT-HORUS, priority 2017, dated 2025).

Experiments:
[1] = tested on: NCI-H295R adrenal cancer xenograft; conditions: mouse, in vivo, iv
Protocol: Gallium was obtained in ^68Ga^3+ form using a commercial TiO2-based ^68Ge/^68Ga generator (Obninsk). […] Animal studies were performed according to the protocols approved by the Aix-Marseille Ethic comity (Comity 14). Four weeks old BALB/c Nude Mouse male were obtained from Charles River Inc. Mice were implanted subcutaneously in the upper flanks with NCI-H295R cells (7×10^6) in 150 μL of complete medium containing 50% Matrigel (Corning). Mice were used for imaging experiments when the tumours reached a volume comprised between 700-1500 mm^3. Animals received the test substance by intravenous single bolus at dose of 10±4MBq of ^68Ga-CH44 or ^68Ga-CH40. Six mice were implanted with NCI-11295R adrenal cancer cells. On day 14 following implantation, the animals were administered intravenously at 24 hours interval with ^18F-FDG, ^68Ga-CH44 and ^68Ga-CH40, respectively. On days 32 post-implantation, the animals were administered intravenously with ^68Ga-CH44 followed 24 hours later with ^68Ga.-[…]. Following each administration, the biodistribution in the adrenal cancer xenograft and other tissues was assessed using PET-imaging. Groups (n=5-7) of nude mice were i.v. administered 10±4MBq of ^68Ga-CH44 and PET/CT scans were acquired at 1 h post injection (p.i.). PET and PET/CT studies were performed on a microPET/microCT rodent model scanner (nanoPET/CT®, Mediso). […]

[2] = tested on: Pk4a pancreatic cancer xenograft; conditions: mouse, in vivo
Protocol: Gallium was obtained in ^68Ga^3+ form using a commercial TiO2-based ^68Ge/^68Ga generator (Obninsk). […] Animal studies were performed according to the protocols approved by the Aix-Marseille Ethic comity (Comity 14). Four week's old BALB/c Nude Mouse male were obtained from Charles River Inc. Mice were subcutaneously implanted between the shoulders with Pk4a cells (1×10^6) in 150 μL of complete medium. Mice were used for imaging experiments when the tumours reached a volume comprised between 700-1500 mm^3. Animals received the test substance by intravenous single bolus at dose of 10±4 MBq of ^68Ga-CH44 and ^68Ga-CH40. Mice (n=5 to 6) were implanted with Pk4a pancreatic cancer cells. On day 4 following implantation, the animals were administered intravenously at 24 hours interval with ^68 Ga-CH44 and ^68Ga-CH40, respectively. On day 12 post-implantation, the animals were administered intravenously with ^68Ga.-CH44 followed 24 hours later with ^68Ga-CH40. Groups (n=5 to 7) of nude mice were i.v. administered 10±4 MBq of ^68Ga-CH44 and PET/CT scans were acquired at 1 hour post injection (p.i.). PET and PET/CT studies were performed on a microPET/microCT rodent model scanner (nanoPET/CT®, Mediso). Anesthesia was induced with 5% isoflurane and maintained at 1.5%. […]

^18F-FDG
accumulation at the tumour site (PET) [1]: no significant accumulation | accumulation in pancreatic tumour (PET) [2]: no significant accumulation
